Source: BindingDB's records for doi:10.1021/jm300416h (Taiho Pharmaceutical, 2012)

Experiment: Inhibition of human dUTPase-mediated cell proliferation in HeLa S3 cells assessed as compound concentration required to reduce 50% of 1 uM of FdUrd T/C after 24 hrs by crystal violet staining

EC50: 71 nM
SMILES: CC(C)(CC/C=C/Cn1ccc(=O)[nH]c1=O)NS(=O)(=O)c1cccc(OCC2CC2)c1
